Reference: patent US6632799B2, “Injectable ready-to-use solutions containing an antitumor anthracycline glycoside” (Pharmacia & Upjohn Company, priority 1985, dated 2003)
Where a name gives a salt, the structure may show the parent alone.

Legend:
Format in all cases: physicochemical
[1] = Shelf-life (t 90%) forecast of doxorubicin.HCl 2 mg/ml solution in 5% dextrose adjusted to pH 3.0; details: 5% dextrose pH 3.0, 55° C., 4 days
[2] = pH-stability profile at 55° C. of doxorubicin.HCl solutions in sterile water, 5% dextrose, 0.9% saline
[3] = Shelf-life (t 90%) forecast of doxorubicin.HCl 2 mg/ml sterile water solution adjusted to pH 3.0
Method: The Arrhenius equation for the degradation process was calculated from the Kobs obtained from the different temperatures taken in account for the testing (table 11).
Applying the equation, the rate constants for the pseudo-first order reactions at 4° C., 8° C., 15° C. and 27° C. were calculated, together with the expected t90% at these temperatures.

- Doxorubicin.HCl % stability [1]: 81.3%
- Doxorubicin.HCl % stability ([2]; 0.9% saline, pH 2.5 buffer, 8 hours): 96.3%
- Doxorubicin.HCl % stability ([2]; 0.9% saline, pH 5.0 buffer, 16 hours): 74.2%
- Doxorubicin.HCl % stability ([2]; 5% dextrose, pH 4.0 buffer, 24 hours): 83.1%
- Doxorubicin.HCl % stability ([2]; 5% dextrose, pH 4.0 buffer, 34 hours): 74.2%
- Doxorubicin.HCl % stability ([2]; sterile water, pH 2.5 buffer, 72 hours): 50.2%
- Doxorubicin.HCl % stability ([2]; sterile water, pH 5.0 buffer, 48 hours): 52.5
- Doxorubicin.HCl % stability ([3]; sterile water pH 3.0, 35° C., 14 days): 94.8%
- Doxorubicin.HCl % stability ([3]; sterile water pH 3.0, 45° C., 4 days): 96.3%
Compound: COc1cccc2c1C(=O)c1c(O)c3c(c(O)c1C2=O)C[C@@](O)(C(=O)CO)C[C@@H]3O[C@H]1C[C@H](N)[C@H](O)[C@H](C)O1 [Doxorubicin.HCl, doxorubicin hydrochloride]
